Several values for one entry are separate records, joined by “and”; a condition that tells them apart may be missing. Equal entries are not always repeated. The entries are a selection whose mix differs from that of the whole data set. Activity calls are given as the source filed them. Rule as the data show it: active = inhibition above about 30%; inactive = the rest.

Protein sequences, listed by entry. Tags and fused reporters are not part of them. Lines headed by an entry give the natural chain unless they say otherwise; changes in a name come on top.
UniProt P61981: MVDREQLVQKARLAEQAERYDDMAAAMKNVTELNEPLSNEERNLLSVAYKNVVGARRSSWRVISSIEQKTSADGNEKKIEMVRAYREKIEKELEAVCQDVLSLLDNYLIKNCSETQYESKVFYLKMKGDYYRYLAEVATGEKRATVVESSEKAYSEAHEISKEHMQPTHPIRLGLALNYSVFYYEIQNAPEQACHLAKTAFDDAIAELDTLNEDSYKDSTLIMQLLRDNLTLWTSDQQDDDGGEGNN

The target of the assay is 14-3-3 protein gamma (Homo sapiens) (UniProt P61981). Briefly: modulators of 14-3-3 gamma protein binding, primary screen, biochemical, fluorescence polarization (AID 422).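 Also: 0% = protein plus tracer without compound and 100% = blank with tracer alone.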 The settings on record: FP, 14-3-3gamma / TMR-pS259-Raf peptide binding; at 40 µM; active compounds read high. For orientation: Polarisation of emitted light reports the rotation of a fluorescent probe.
For `Nc1cc(N)c2nonc2c1[N+](=O)[O-]`, the inhibition was inactive: -15.5%. Consider `Cc1c2non([O-])c-2c(C)[n+](=O)[n+]1[O-]`, for which the inhibition was inactive: -8.77%. The figure for `O=C(CCc1ccccc1)OC1CN2CCC1CC2` (stereo not drawn) is inactive: -0.98%; for `CN(C(=O)Cc1ccc(Cl)c(Cl)c1)[C@H]1CCCC[C@@H]1N1CCCC1` it is inactive: -3.29% and inactive: 0.72%; for `COC(=O)C1=C(C(=O)OC)SC(Br)(C(=O)OC)C(Br)(C(=O)OC)S1` (stereo not drawn) it is inactive: -2.04%. The result for `CCc1nc2c(n1)c1c(non1O)c1c2no[n+]1[O-]` reads inactive: -4.71%. The result for `BrCC1CN=C(N2CCOCC2)S1` (stereo not drawn) reads inactive: -10.1%; that for `O=P(Nc1nccs1)(c1ccccc1)c1ccccc1`, inactive: -1.36%. `COc1ccccc1OP(=O)(Nc1ccccn1)Oc1ccccc1OC`: the inhibition was inactive: -2.74%. The result for `c1nnnn1CCn1cnnn1` reads inactive: -4.18%; that for `O=C(OC1CN2CCC1CC2)c1cccc(Cl)c1` (stereo not drawn), inactive: -5.37%. The result for `CCN(C(=NP(=O)(N1CCOCC1)N1CCOCC1)N1CCOCC1)c1ccc(OC)cc1` reads inactive: 6.48%. The figure for `CCOP(=S)(NCC(C)C)OCC` is inactive: 1.09%; for `CN(C(=O)Cc1ccc(Cl)c(Cl)c1)[C@@H]1CCCC[C@@H]1N1CCCC1` it is inactive: -2.4%; for `Cc1ccc([N+](=O)[O-])c2no[n+]([O-])c12` it is inactive: -15%.

In the case of `O=P1(Nc2nc3ccc(Cl)cc3s2)COc2ccccc2O1` (stereo not drawn), the inhibition is inactive: -6.14%. The result for `CN(C(=O)Cc1ccc(Cl)c(Cl)c1)[C@@H]1CC[C@]2(CCCO2)C[C@H]1N1CCCC1` reads inactive: 4.9%.

`Cc1cccc(OCC(=O)OC2CN3CCC2CC3)c1` (stereo not drawn): the inhibition was inactive: -1.78%. For the compound `CCOP1(=S)c2c(C)nn(CCC#N)c2N=C(c2ccc(F)cc2)N1C` (stereo not drawn), the inhibition is inactive: 2.03%. The figure for `CN(C(=O)Cc1ccccc1)[C@@H]1CC[C@]2(CCCO2)C[C@H]1N1CCCC1` is inactive: 4.9%. The figure for `Cc1ccc(S(=O)(=O)N2CC(=O)SC2C(Cl)(Cl)Cl)cc1` (stereo not drawn) is inactive: -12.3%. The figure for `O=P(Nc1nccs1)(c1ccccc1)c1nc2ccccc2s1` (stereo not drawn) is inactive: 5.2%; for `CCOP1(=S)c2c(C)nn(CCC#N)c2N=C(c2ccccc2F)N1C` (stereo not drawn) it is inactive: -2.2%. Regarding `CN1CC(=O)N/C1=N/P(=O)(OCc1ccccc1)OCc1ccccc1`, the inhibition was inactive: 2.78%. The figure for `O=P1(Nc2ncccn2)COc2ccccc2OC1` is inactive: -9.93%.

In the case of `O=P1(Nc2ccc(Br)cn2)COc2ccccc2OC1`, the inhibition was inactive: 3.99%. Consider `Cc1ccc(OCC(=O)OC2CN3CCC2CC3)cc1` (stereo not drawn), for which the inhibition was inactive: -4.83%.

`Cc1nn(-c2ccccc2)c2c1P(=O)(N1CCOCC1)N(C)C(c1ccccc1)=N2` (stereo not drawn): the inhibition is inactive: -2.2%.

In the case of `O=P(Oc1ccccc1)(Oc1ccccc1)n1c(-c2cccnc2)nc2ccccc21`, the inhibition was inactive: 8.2%. With `CN(C(=O)Cc1ccc(Cl)c(Cl)c1)[C@@H]1CCCC[C@H]1N1CCCC1`, the inhibition is inactive: 3.85%. The figure for `CN(CCCl)Cc1cc(Cl)c(NC2=NCCN2)c(Cl)c1` is inactive: -1.42%; for `COc1cccc(OP(=O)(Nc2ccccn2)Oc2cccc(OC)c2)c1` it is inactive: -3.42%.

Regarding `O=P1(Nc2ccccn2)COc2ccccc2OC1`, the inhibition is inactive: -2.34%. The result for `Clc1n[nH]nc1-c1nn[nH][15n]1` reads inactive: -5.6%; that for `Clc1cccc(NC2=NCC(CBr)S2)c1` (stereo not drawn), inactive: 0.48%. The figure for `COP1(=S)c2c(C)nn(CCC#N)c2N=C(c2ccc(F)cc2)N1C` (stereo not drawn) is inactive: 0.97%; for `O=C(COc1ccccc1)OC1CN2CCC1CC2` (stereo not drawn) it is inactive: -2.55%.

For `CC(C)c1ccc(OP(=O)(Nc2ccccn2)Oc2ccccc2F)cc1` (stereo not drawn), the inhibition was inactive: -1.07%. The result for `COC(=O)c1cc([N+](=O)[O-])[nH]n1` reads inactive: 11.5%; that for `O=C(OC1CN2CCC1CC2)C12CC3CC(CC(C3)C1)C2` (stereo not drawn), inactive: -9.17% and inactive: 2.28%. The result for `COP(=O)(OC)C(NC(=O)c1ccc(C)cc1)=C(Cl)Cl` reads inactive: -2.96%. The result for `O=C(COc1ccc(F)cc1)OC1CN2CCC1CC2` (stereo not drawn) reads inactive: 6.86%. Consider `CN(C)P1(=O)Nc2ccccc2S1` (stereo not drawn), for which the inhibition is inactive: -4.09%.

What is called inhibition is the relative decrease from the control value, in per cent.

The record behind these values is PubChem BioAssay AID422 (Emory University Molecular Libraries Screening Center, 2006).
